{"sequences": {"note": "By UniProt entry, the sequences of proteins in these tests, tags left out.", "UniProt P32929, whole entry, looked up": "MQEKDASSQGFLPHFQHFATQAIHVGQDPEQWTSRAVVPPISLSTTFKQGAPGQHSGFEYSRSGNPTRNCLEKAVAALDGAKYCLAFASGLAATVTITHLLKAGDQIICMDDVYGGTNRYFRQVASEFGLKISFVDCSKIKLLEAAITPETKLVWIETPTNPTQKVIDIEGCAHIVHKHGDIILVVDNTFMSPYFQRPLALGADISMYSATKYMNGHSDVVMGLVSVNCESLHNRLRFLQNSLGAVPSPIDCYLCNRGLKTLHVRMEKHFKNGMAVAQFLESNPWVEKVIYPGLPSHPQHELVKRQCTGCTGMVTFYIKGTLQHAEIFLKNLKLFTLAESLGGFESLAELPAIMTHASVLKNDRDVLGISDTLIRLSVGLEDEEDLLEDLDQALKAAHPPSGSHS"}, "source": "patent US20150202186A1", "about": "“CYSTATHIONINE-(gamma)-LYASE (CSE) INHIBITORS FOR TREATING PAIN” (SOVA PHARMACEUTICALS, INC., priority 2014, published 2015)", "molecular_target": "recombinant CSE (cystathionine-γ-lyase) (UniProt P32929)", "assay": "CSE In Vitro Assay", "conditions": "recombinant CSE 20 ug/ml, 50 uM PLP, DL-Homocysteine substrate, 3 hours at 37° C., absorbance at 671 nm", "data": [{"smiles": "NN(CCCc1nnn[nH]1)c1nnn[nH]1", "values": [{"measurement": "IC50", "value": "25 to 100", "unit": "µM"}]}]}
